Where a name gives a salt, the structure may show the parent alone. Read-outs that look alike come from different tables or passages of the source.
Columns and labels:
[1] = tested on: MV-4-11 cell subcutaneous transplant model; settings: Exp. Ex. 3-3, oral, 31 days after transplantation
[2] = tested on: MV-4-11 cell subcutaneous transplant model; settings: Exp. Ex. 3-2, oral, 34 days after transplantation
[3] = tested on: MV-4-11 cell subcutaneous transplant model; settings: Exp. Ex. 3-4, oral, 32 days after transplantation

With `COc1cc(-c2ccc(CN[C@H]3C[C@@H](O)[C@@H](N(C)c4ncnc5sc(CC(F)(F)F)cc45)C3)cc2)cnc1C#N` [Example 22, 5-[4-({[(1R,3R,4S)-3-hydroxy-4-{methyl[6-(2,2,2-trifluoroethyl)thieno[2,3-d]pyrimidin-4-yl]amino}cyclopentyl]amino}methyl)phenyl]-3-methoxypyridine-2-carbonitrile Hydrochloride] the “Tumor growth inhibitory rate (%)” value ([1]; qdx17, 25 mg/kg/day) was 27%, the “Tumor growth inhibitory rate (%)” value ([1]; qdx17, 50 mg/kg/day) was 99% and the “Tumor growth inhibitory rate (%)” value ([1]; qdx17, 100 mg/kg/day) was 100%.
For `CN(c1ncnc2sc(CC(F)(F)F)cc12)[C@H]1C[C@@H](NCc2ccc(-c3cccc4c3cnn4S(C)(=O)=O)cc2)C[C@H]1O` [Example 23, (1R,2S,4R)-4-[({4-[1-(methanesulfonyl)-1H-indazol-4-yl]phenyl}methyl)amino]-2-{methyl[6-(2,2,2-trifluoroethyl)thieno[2,3-d]pyrimidin-4-yl]amino}cyclopentan-1-ol Hydrochloride], the “Tumor growth inhibitory rate (%)” value ([1]; qdx17, 25 mg/kg/day) was 37%, the “Tumor growth inhibitory rate (%)” value ([1]; qdx17, 50 mg/kg/day) was 97% and the “Tumor growth inhibitory rate (%)” value ([1]; qdx17, 100 mg/kg/day) was 100%.
In the case of `COc1cc(-c2ccc(CN[C@H]3C[C@@H](O)[C@@H](N(C)c4ncnc5sc(CC(F)(F)F)cc45)C3)cc2)nnc1OC` [Example 25, (1R,2S,4R)-4-({[4-(5,6-dimethoxypyridazin-3-yl)phenyl]methyl}amino)-2-{methyl[6-(2,2,2-trifluoroethyl)thieno[2,3-d]pyrimidin-4-yl]amino}cyclopentan-1-ol Hydrochloride], the “Tumor growth inhibitory rate (%)” value ([2]; qdx18, 12.5 mg/kg/day) is reported as 33.0%, the “Tumor growth inhibitory rate (%)” value ([2]; qdx18, 50 mg/kg/day) is reported as 100% and the “Tumor growth inhibitory rate (%)” value ([2]; qdx18, 100 mg/kg/day) is reported as 100%.
For `COc1nc(N(C)[C@H]2C[C@@H](NCc3ccc(-c4cc(OC)c(OC)nn4)cc3)C[C@H]2O)c2cc(CC(F)(F)F)sc2n1` [Example 27, (1R,2S,4R)-4-({[4-(5,6-dimethoxypyridazin-3-yl)phenyl]methyl}amino)-2-{[2-methoxy-6-(2,2,2-trifluoroethyl)thieno[2,3-d]pyrimidin-4-yl](methyl)amino}cyclopentan-1-ol Hydrochloride], the “Tumor growth inhibitory rate (%)” value ([2]; qdx18, 100 mg/kg/day) was 100%.
For `COc1cc(-c2ccc(CN[C@H]3C[C@@H](O)[C@@H](N(C)c4ncnc5sc(CC(F)(F)F)cc45)C3)cc2)cnc1C.Cl` [Example 60, (1R,2S,4R)-4-({[4-(5-methoxy-6-methylpyridin-3-yl)phenyl]methyl}amino)-2-{methyl[6-(2,2,2-trifluoroethyl)thieno[2,3-d]pyrimidin-4-yl]amino}cyclopentan-1-ol hydrochloride], the “Tumor growth inhibitory rate (%)” value ([3]; qdx16, 25 mg/kg/day) was 43%, the “Tumor growth inhibitory rate (%)” value ([3]; qdx16, 50 mg/kg/day) was 97% and the “Tumor growth inhibitory rate (%)” value ([3]; qdx16, 100 mg/kg/day) was 100%.
`COc1cc(-c2ccc(CN[C@H]3C[C@@H](O)[C@@H](N(C)c4ncnc5sc(CC(F)(F)F)cc45)C3)cc2)cnc1OC.Cl` [Example 67, (1R,2S,4R)-4-({[4-(5,6-dimethoxypyridin-3-yl)phenyl]methyl}amino)-2-{methyl[6-(2,2,2-trifluoroethyl)thieno[2,3-d]pyrimidin-4-yl]amino}cyclopentan-1-ol hydrochloride] was tested, and the “Tumor growth inhibitory rate (%)” value ([3]; qdx16, 25 mg/kg/day) was 9%, the “Tumor growth inhibitory rate (%)” value ([3]; qdx16, 50 mg/kg/day) was 61% and the “Tumor growth inhibitory rate (%)” value ([3]; qdx16, 100 mg/kg/day) was 100%.
In the case of `COc1cc(-c2ccc(CN[C@H]3C[C@@H](O)[C@@H](N(C)c4ncnc5sc(CC(F)(F)F)cc45)C3)cc2)cnc1F.Cl` [Example 68, (1R,2S,4R)-4-({[4-(6-fluoro-5-methoxypyridin-3-yl)phenyl]methyl}amino)-2-{methyl[6-(2,2,2-trifluoroethyl)thieno[2,3-d]pyrimidin-4-yl]amino}cyclopentan-1-ol hydrochloride], the “Tumor growth inhibitory rate (%)” value ([1]; qdx17, 25 mg/kg/day) is reported as 0%, the “Tumor growth inhibitory rate (%)” value ([1]; qdx17, 50 mg/kg/day) is reported as 42% and the “Tumor growth inhibitory rate (%)” value ([1]; qdx17, 100 mg/kg/day) is reported as 97%.
